{"source": "patent US9511086B2", "about": "“Method for improving immune system function by administering agents that inhibit DNA-dependent protein kinase-directed apoptosis” (The Board of Trustees of the Leland Stanford Junior …, priority 2010, dated 2016)", "test_system": "CD4+CD45RO− T cells from RA patients and controls", "test": "T-cell apoptosis (PI) with homeostatic cytokines", "format": "cell-based, human", "conditions": "72 h culture; IL-2 20 U/ml, IL-7 20 ng/ml, IL-15 10 ng/ml; similar in control and RA T cells", "protocol": "FIG. 1. Apoptotic susceptibility and DNA damage in naïve CD4 T cells from RA patients. CD4+CD45RO− T cells were isolated from the peripheral blood of RA patients and controls. Cells were maintained in culture without mitogenic stimulation for 72 h. (A) T cells undergoing apoptosis were identified by Annexin V and 7-AAD staining in patient-derived and control samples. Data are given as mean±SEM from 6 patients and 6 controls. (B) Representative data from one patient and one control collected after 72 h are shown. (C) Cells were maintained in culture with IL-2 (20 U/ml), IL-7 (20 ng/ml), IL-15 (10 ng/ml), or a mixture of the three (Mix) for 72 h. […] (D) DNA breaks were quantified by comet assay after 72 h. Data are given as mean±SEM of 7 patients and 6 controls with a minimum of 90 individual cells analyzed in each sample. […] (F) The level of 8-oxoguanine in 5 RA and 5 control samples is given as mean fluorescence intensity (MFI) of FITC-8-oxoguanine±SEM. (G) 53BP1 foci were determined by immunofluorescence staining and confocal laser microscopy after 72 h. […]\nTo quantify T-cell apoptosis, CD4^+CD45RO^− cells were washed and suspended in 500 μl FACS buffer supplemented with EasyComp Blank Particles (Spherotech, Lake Forest, Ill.). Uptake of PI (Sigma-Aldrich) was determined by flow cytometry. Apoptotic cells were detected with PE-Annexin V (BD Biosciences, San Jose, Calif.) and 7-AAD (BD Biosciences).", "data": [{"substance": "IL-2: growth-promoting, T-cell homeostatic cytokine", "values": [{"measurement": "apoptosis rates / T-cell attrition", "value": "prevented only one-third of the T-cell attrition"}]}]}
